The entries are a selection whose mix differs from that of the whole data set. The source made the active and inactive calls. Cut-off read from the data, not from the text of the source: active = inhibition above about 50%; inactive = the rest.

By UniProt entry, the sequences of proteins in these tests, tags left out. Where a name states a change or a piece, a line headed by the entry shows the natural chain unless it says otherwise.
UniProt Q96LD8: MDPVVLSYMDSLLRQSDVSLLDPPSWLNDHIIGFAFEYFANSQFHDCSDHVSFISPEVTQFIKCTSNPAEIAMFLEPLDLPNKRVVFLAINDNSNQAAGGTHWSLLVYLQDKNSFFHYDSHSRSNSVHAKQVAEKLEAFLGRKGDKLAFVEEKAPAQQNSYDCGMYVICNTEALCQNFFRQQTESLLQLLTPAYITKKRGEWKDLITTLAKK

The test addresses Sentrin-specific protease 8 (Homo sapiens) (UniProt Q96LD8). Put plainly: SENP8 protease inhibitors, primary screen, biochemical, luminescence (AID 2540). To be noted: purified SENP8, Z-RLRGG-aminoluciferin cleavage, at 10 µM, hits give high values.
As for `Clc1n[nH]nc1-c1nn[nH][15n]1`, the inhibition was inactive: -7.56%. In the case of `CC(C)(C)C(=O)NC(Sc1ncccn1)C(Cl)(Cl)Cl` (configuration not stated), the inhibition was inactive: 2.93%. Turning to `CCOP(=O)(Nc1ccc(C)cn1)OCC`, the inhibition was inactive: 0.527%. The same measure for `CN(CCCl)Cc1cc(Cl)c(NC2=NCCN2)c(Cl)c1`: inactive: 3.61%; for `O=P1(Nc2ccccn2)COc2ccccc2OC1`: inactive: -6.87%. The value for `CCC1=CC2Cc3nc4ccc(Cl)cc4c(N)c3C(C1)C2` (configuration not stated) was inactive: -0.408%.

`CCOP(=O)(NC(=NC(C)c1ccccc1)NC(C)c1ccccc1)OCC` (configuration not stated): the inhibition is inactive: 4.55%.

In the case of `Cc1ccc(OCC(=O)OC2CN3CCC2CC3)cc1` (configuration not stated), the inhibition was inactive: 0.969%.

In the case of `O=[As](O)(c1cccs1)c1cccs1`, the inhibition was inactive: -9.16%. As to `O=P1(Nc2ccc(Br)cn2)COc2ccccc2OC1`, the inhibition was inactive: 9.36%. The value for `NS(=O)(=O)c1cccc(NC(=O)COC(=O)C(O)(c2ccccc2)c2ccccc2)c1` was inactive: -0.473%. The value for `Nc1cccc([As](=O)(O)c2ccccc2)c1` was inactive: -0.81%. In the case of `O=P1(Nc2ncccn2)COc2ccccc2OC1`, the inhibition was inactive: -10.5%. Take `O=C(/C=C/c1ccccc1)OC1CN2CCC1CC2` (configuration not stated): the inhibition is inactive: -5.99%. The same measure for `CN(C)C1(CNC(=O)c2ccc(S(C)(=O)=O)cc2)CCCCC1`: inactive: -7.67%; for `Cc1nn(-c2ccccc2)c2c1P(=O)(N1CCOCC1)N(C)C(c1ccccc1)=N2` (configuration not stated): inactive: -3.32%; for `CC1CCC(C(C)C)C(OP(=O)(Nc2ccccn2)c2ccccc2)C1` (configuration not stated): inactive: -0.392%. The same measure for `Cc1ccc(C(=O)OC2CN3CCC2CC3)cc1` (configuration not stated): inactive: -1.76%; for `O=P(Nc1ccccn1)(c1cccc2ccccc12)c1cccc2ccccc12`: inactive: 3.64%; for `Cc1cc(SC(NC=O)C(Cl)(Cl)Cl)ncn1` (configuration not stated): inactive: -10.3%.

With `CCOC(=O)Nc1cccc([As](=O)(O)O)c1`, the inhibition is inactive: -3.96%.

As for `CCCCOc1ccc(C(=O)NCC2(N3CCCCC3)CCCCC2)cc1OC`, the inhibition was inactive: -3.02%. `Cc1cc(SC(NC(=O)c2ccccc2)C(Cl)(Cl)Cl)nc(C(C)C)n1` (configuration not stated): the inhibition is inactive: 4.31%. As for `CCOC(=O)Nc1ccc([As](=O)(O)O)c(O)c1`, the inhibition is inactive: -0.311%. The same measure for `CCC(C)N(CC(C)C)C(=S)SC(NC(C)=O)C(Cl)(Cl)Cl` (configuration not stated): inactive: 3.43%; for `CCOC(=O)c1ccc(NC(=O)C(C)(CCl)SC)cc1` (configuration not stated): inactive: -5.99%; for `O=C(OC1CN2CCC1CC2)c1cccc([N+](=O)[O-])c1` (configuration not stated): inactive: 0.19%. On to `O=C(COc1ccccc1)OC1CN2CCC1CC2` (configuration not stated), for which the inhibition was inactive: 0.323%.

Take `O=C(Nc1ccncc1[N+](=O)[O-])c1ccc([N+](=O)[O-])cc1[N+](=O)[O-]`: the inhibition is inactive: 2.87%.

In the case of `COP1(=S)c2c(C)nn(CCC#N)c2N=C(c2ccc(F)cc2)N1C` (configuration not stated), the inhibition was inactive: 0.921%. The value for `COc1ccc(N/C(=N/P(=O)(N2CCOCC2)N2CCOCC2)N2CCOCC2)cc1` was inactive: 2.5%. Regarding `COc1ccc2nc(NP(=O)(c3ccccc3)c3ccccc3)sc2c1`, the inhibition is inactive: 8.74%.

On to `COc1cc(I)ccc1[As](=O)(O)O`, for which the inhibition was inactive: 0.792%. For `O=C(OC1CN2CCC1CC2)C12CC3CC(CC(C3)C1)C2` (configuration not stated), the inhibition was inactive: -5.74%. Consider `Cc1cc(=O)[nH]c(N[N+](=O)[O-])n1`, for which the inhibition is inactive: -6.95%.

As for `Cc1c2c(nc3ccccc13)SC(C(Cl)Cl)C2` (configuration not stated), the inhibition is inactive: -15.5%.

As for `CC(C)NC(=O)NP(=O)(Oc1ccccc1)Oc1ccccc1`, the inhibition is inactive: -0.793%. `CCN(CC)C(=S)SC(NC=O)C(Cl)(Cl)Cl` (configuration not stated): the inhibition was inactive: -7.82%. The value for `O=C(OC1CN2CCC1CC2)c1cccc2[nH]cnc12` (configuration not stated) was inactive: -0.408%; that for `O=[N+]([O-])c1cc([N+](=O)[O-])c(-c2ccn[nH]2)s1` was inactive: 8.15%; that for `CC(C)c1ccc(OP(=O)(Nc2ccccn2)Oc2ccccc2F)cc1` (configuration not stated) was inactive: 2.6%.

Take `ClCCSc1nnc(-c2cccnc2)o1`: the inhibition was inactive: 6.76%. As to `Cc1ccc2nc3c(c(C)c2c1)CC(C(Cl)Cl)S3` (configuration not stated), the inhibition is inactive: -13.7%. The same measure for `Cc1ccc(OP(=O)(Nc2ccc([N+](=O)[O-])cn2)Oc2ccc(C)cc2)cc1`: inactive: 1.88%. The value for `O=[As](O)(c1ccc(O)cc1)c1ccccc1O` was inactive: -3.05%; that for `C[As](=O)(O)c1cccc(C(=O)O)c1` was inactive: -5.05%. Take `COc1cc(C(=O)NCC2(N3CCOCC3)CCCCC2)ccc1OCC(C)C`: the inhibition is inactive: -0.205%.

What is called inhibition is the change of the read-out against control, counted positive when it falls.

Values taken from PubChem BioAssay AID2540 (Sanford-Burnham Center for Chemical Genomics, 2010).
